Values of other authors, collected in patent US5747463A, “Malonate derivatives of glycolipids as cell adhesion inhibitors” (Bristol-Myers Squibb Company, priority 1996, dated 1998).

Biological target: T1, P-selectin (Homo sapiens, UniProt P16109)
T1 sequence (P16109 42-830): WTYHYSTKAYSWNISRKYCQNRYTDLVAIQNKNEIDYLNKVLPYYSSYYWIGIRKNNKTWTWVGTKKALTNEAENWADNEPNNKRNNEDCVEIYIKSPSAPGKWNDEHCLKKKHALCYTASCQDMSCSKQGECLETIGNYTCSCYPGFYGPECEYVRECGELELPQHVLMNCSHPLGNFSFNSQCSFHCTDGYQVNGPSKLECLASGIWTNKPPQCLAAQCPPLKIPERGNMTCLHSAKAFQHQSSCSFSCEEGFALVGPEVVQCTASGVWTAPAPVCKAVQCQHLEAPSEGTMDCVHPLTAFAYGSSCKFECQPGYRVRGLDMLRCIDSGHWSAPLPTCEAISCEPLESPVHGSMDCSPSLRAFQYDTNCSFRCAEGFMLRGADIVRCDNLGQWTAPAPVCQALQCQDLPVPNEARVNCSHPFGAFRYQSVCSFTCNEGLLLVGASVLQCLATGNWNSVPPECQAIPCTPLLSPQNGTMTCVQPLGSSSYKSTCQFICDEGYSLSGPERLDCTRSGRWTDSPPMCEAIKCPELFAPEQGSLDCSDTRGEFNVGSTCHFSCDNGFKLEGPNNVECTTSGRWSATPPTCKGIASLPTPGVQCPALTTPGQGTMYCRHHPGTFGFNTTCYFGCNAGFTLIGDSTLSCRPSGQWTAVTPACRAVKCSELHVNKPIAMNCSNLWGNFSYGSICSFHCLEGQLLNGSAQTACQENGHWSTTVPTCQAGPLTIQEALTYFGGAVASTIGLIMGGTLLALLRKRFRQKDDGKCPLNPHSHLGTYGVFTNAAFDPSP
Settings: literature; cited from earlier work

Substance: sialyl-Lewis^x
- binding to P-selectin: shown to bind
